In patent US20250223431A1, “AQUEOUS DISPERSION OF BIOCIDE-FREE ORGANIC OPACIFYING PIGMENT PARTICLES” (Rohm and Haas Company, priority 2022, published 2025):

Test system: standard pool of bacteria, yeasts, and molds
Assay: Microbial resistance challenge test (three inoculations, streak plating on TSA and PDA agar)
Details: summary in words of the challenge tests

Compound: CCC(C)(C)OO
- effectiveness as preservative for the aqueous dispersion of opaque polymers: effective as preservatives
